{"sequences": {"note": "Chains of the proteins cited; added tags and fusions are not shown.", "UniProt A0AA82WPC2, entry or part of it": "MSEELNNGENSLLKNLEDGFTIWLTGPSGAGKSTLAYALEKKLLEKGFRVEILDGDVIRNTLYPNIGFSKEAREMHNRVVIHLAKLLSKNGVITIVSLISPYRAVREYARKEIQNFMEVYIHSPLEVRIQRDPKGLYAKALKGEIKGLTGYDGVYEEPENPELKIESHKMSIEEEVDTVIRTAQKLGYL", "UniProt A0AA82WPC4, entry or part of it": "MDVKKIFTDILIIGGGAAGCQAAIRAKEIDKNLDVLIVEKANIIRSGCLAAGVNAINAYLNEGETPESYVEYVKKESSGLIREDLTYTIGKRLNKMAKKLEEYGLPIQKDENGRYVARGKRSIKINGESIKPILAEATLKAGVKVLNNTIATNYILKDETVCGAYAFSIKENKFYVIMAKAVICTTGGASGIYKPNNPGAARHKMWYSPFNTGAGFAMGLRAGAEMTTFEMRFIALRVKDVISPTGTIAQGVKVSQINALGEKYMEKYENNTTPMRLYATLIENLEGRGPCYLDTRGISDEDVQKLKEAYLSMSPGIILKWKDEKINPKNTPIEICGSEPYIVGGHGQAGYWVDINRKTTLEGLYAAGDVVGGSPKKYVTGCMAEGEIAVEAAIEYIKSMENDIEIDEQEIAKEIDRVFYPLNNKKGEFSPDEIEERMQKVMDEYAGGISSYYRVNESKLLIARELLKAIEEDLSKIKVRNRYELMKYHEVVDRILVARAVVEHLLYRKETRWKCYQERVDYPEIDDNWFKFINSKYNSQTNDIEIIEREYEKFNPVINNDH"}, "source": "paper PMC10322725", "about": "“Assimilatory sulfate reduction in the marine methanogen Methanothermococcus thermolithotrophicus” (Nature Microbiology, 2023)", "key": {"MtAPSK": {"molecular_target": "T1, MtAPSK (Methanothermococcus thermolithotrophicus, UniProt A0AA82WPC2)", "T1 construct": "gene cysC; recombinant in E. coli, codon-optimized gene in pET-28a(+) NdeI/BamHI, HisTrap, tag cleaved if necessary; homodimer", "experiment": "coupled NADH oxidation assay with MtATPS, pyrophosphatase, pyruvate kinase/lactate dehydrogenase", "type": "biochemical"}, "MtPAPSR": {"molecular_target": "T2, MtPAPSR (Methanothermococcus thermolithotrophicus, UniProt A0AA82WPC4)", "T2 construct": "alpha and beta co-expressed in E. coli from pET-28a(+) NcoI/BamHI, C-terminal His-tag on alpha, anaerobic purification; alpha2beta2 heterotetramer; with Adenylylsulfate reductase subunit beta (PAPS reductase beta subunit)", "experiment": "coupled assay, oxidation of reduced methyl viologen at […] nm", "type": "biochemical"}}, "data": [{"smiles": "Nc1ncnc2c1ncn2[C@@H]1O[C@H](COP(=O)(O)OS(=O)(=O)O)[C@@H](O)[C@H]1O", "note": "[APS]", "values": [{"measurement": "coupled NADH oxidation assay with MtATPS, pyrophosphatase, pyruvate kinase/lacta", "setting": "MtAPSK", "value": "MtAPSK should be functional, as confirmed by the coupled enzyme assay"}, {"measurement": "coupled assay, oxidation of reduced methyl viologen at 600 nm", "setting": "MtPAPSR", "value": "The specific enzymatic activity with APS as a substrate (that is, removal of MtAPSK)"}]}]}
